Measurements reported in BindingDB's records for PubMed 1347569 (Stanford University, 1992).

Sequences of proteins named here, by UniProt entry; tags and fusion partners are left off.
UniProt P14842, whole entry: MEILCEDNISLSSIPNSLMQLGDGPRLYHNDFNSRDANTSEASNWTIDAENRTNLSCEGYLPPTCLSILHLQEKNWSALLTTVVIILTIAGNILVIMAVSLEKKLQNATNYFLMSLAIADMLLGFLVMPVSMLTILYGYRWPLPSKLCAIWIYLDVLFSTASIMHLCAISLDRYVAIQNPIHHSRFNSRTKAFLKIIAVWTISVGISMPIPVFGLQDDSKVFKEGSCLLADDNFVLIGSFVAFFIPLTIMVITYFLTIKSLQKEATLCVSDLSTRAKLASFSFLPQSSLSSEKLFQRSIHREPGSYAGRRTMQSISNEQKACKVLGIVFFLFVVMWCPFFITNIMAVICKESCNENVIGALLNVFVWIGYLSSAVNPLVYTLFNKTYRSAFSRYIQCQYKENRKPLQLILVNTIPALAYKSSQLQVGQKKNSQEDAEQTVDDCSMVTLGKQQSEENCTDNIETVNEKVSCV

Legend:
[1] = molecular target: T1, 5-hydroxytryptamine receptor 2C (Rattus norvegicus, UniProt P08909)
T1 sequence (P08909 whole entry): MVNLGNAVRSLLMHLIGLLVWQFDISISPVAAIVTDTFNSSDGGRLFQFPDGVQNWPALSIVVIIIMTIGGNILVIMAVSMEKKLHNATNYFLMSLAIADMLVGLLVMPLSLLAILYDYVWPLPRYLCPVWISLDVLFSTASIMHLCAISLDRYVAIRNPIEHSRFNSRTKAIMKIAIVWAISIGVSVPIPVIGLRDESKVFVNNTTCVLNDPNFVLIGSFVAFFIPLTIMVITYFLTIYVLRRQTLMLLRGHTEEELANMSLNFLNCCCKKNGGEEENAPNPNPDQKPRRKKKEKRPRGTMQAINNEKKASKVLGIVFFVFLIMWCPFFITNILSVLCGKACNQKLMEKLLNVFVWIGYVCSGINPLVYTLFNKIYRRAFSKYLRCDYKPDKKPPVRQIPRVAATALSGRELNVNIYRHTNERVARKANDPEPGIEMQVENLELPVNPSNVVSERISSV

[2] = molecular target: 5-hydroxytryptamine receptor 2A (Rattus norvegicus, UniProt P14842)

Ki [2]	SMILES	Ki [1]
3.8 nM	Cc1nc2sccn2c(=O)c1CCN1CCC(=C(c2ccc(F)cc2)c2ccc(F)cc2)CC1	2.7 nM
31.6 nM	CC1CCN(CCCC(=O)c2ccc(F)cc2)CC1 [CAS_3575-80-2]	–
–	CN1C[C@@H](NS(=O)(=O)N(C)C)C[C@@H]2c3cccc4c3c(cn4C)C[C@H]21 [MESULERGINE]	3 nM

SMILES	Ki [2]	Ki [1]
CN1CCN(CC/C=C2/c3ccccc3Sc3ccc(S(=O)(=O)N(C)C)cc32)CC1 [MLS000028463]	50 nM	–
